Data as given in US20240287154A1, “MC3R AGONIST PEPTIDES” (The Regents of the University of Michigan, priority 2021, published 2024).

The chains behind the UniProt entries cited, without tags or fusion partners. Where a name states a change or a piece, a line headed by the entry shows the natural chain unless it says otherwise.
UniProt P41968: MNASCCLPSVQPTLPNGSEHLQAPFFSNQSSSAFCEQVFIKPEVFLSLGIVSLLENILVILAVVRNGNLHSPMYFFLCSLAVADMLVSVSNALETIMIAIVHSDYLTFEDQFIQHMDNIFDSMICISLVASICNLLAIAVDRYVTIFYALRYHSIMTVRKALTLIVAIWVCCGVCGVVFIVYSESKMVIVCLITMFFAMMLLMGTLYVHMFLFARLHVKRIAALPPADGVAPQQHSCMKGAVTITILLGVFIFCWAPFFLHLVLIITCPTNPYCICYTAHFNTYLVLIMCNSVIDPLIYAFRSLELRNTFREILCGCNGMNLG

Biological target: human MC3R (human, UniProt P41968 1-323)
Assay: cell-based or functional assay

- MC3R cAMP (EC50): 5 nM
Binder: YVXGHFRWDRFG (Nle at 3; D-Phe at 6; D-Trp at 8) [CTX-1102]
